Legend:
CT26WT tumors = assay: CT26WT syngeneic tumour model (remission, re-challenge, bio-distribution, tumoral T-cells); type: in vivo, mouse; conditions: for virus in major organs (bio-distribution, plaque assay): 40 mg/kg intratumoral plus VSVΔ51, 1, 2 or 3 days post infection; for complete remission: CT26WT, combination with VSVΔ51
CT26-LacZ tumors = assay: CT26-LacZ tumours in immunocompetent mice; type: in vivo, mouse
[1] = test system: cytokine, chemokine and IFN stimulated gene expression in 786-0 cells; assay: Gene expression microarray and qPCR in 786-0 cells; type: cell-based, human; conditions: 786-0, 150 uM, VSVΔ51 MOI 0.01, 24 h
[2] = test system: human HT29 colon cancer cells; assay: HT29 tumours in nude mice
786-0 cells = assay: Cell viability assay (alamarBlue) in 786-0 cells; conditions: 786-0, 48 h, one round of infection
[3] = test system: CXCL9 mRNA in CT26WT cells; assay: qPCR of cytokines and chemokines in CT26WT cells

Sodium orthovanadate was tested, and the “virus in major organs (bio-distribution, plaque assay)” value (CT26WT tumors) was “doesn't induce spread of virus to major organs”, the “virus in major organs (bio-distribution, plaque assay)” value (CT26WT tumors; listed as orthovanadate) was “no virus was detected in major organs” and the complete remission (CT26WT tumors) was “approximately 20%”. For the same substance, the complete remission (CT26WT tumors; listed as orthovanadate) was 20%, the “survival, combination with VSVΔ51” value (CT26-LacZ tumors) was “significant improvement of survival over the monotherapies” and the “gene set-enrichment (GOrilla), combination with VSVΔ51” value [1] was “further potentiated in combination with VSVΔ51”. The “VSVΔ51 viral growth in tumour” value [2] was “enhanced VSVΔ51 viral growth”, the “survival, combination with VSVΔ51” value [2] was “no improvements in survival” and the “cell death with VSVΔ51 G-less” value (786-0 cells) was “increased 786-0 cell death was also observed”. For the same substance, the “CXCL9 mRNA expression” value ([3]; with VSVΔ51) was “vanadate-mediated increase in mRNA expression” and the “CXCL9 mRNA expression” value ([3]; with VSVΔ51, listed as orthovanadate) was “synergistic up-regulation of CXCL9”.
